For two compounds, IC50 results are on record in US8822500B2 (dated 2014).

The chains behind the UniProt entries cited, without tags or fusion partners. Residues count along the entry.
UniProt P04629, 33-796: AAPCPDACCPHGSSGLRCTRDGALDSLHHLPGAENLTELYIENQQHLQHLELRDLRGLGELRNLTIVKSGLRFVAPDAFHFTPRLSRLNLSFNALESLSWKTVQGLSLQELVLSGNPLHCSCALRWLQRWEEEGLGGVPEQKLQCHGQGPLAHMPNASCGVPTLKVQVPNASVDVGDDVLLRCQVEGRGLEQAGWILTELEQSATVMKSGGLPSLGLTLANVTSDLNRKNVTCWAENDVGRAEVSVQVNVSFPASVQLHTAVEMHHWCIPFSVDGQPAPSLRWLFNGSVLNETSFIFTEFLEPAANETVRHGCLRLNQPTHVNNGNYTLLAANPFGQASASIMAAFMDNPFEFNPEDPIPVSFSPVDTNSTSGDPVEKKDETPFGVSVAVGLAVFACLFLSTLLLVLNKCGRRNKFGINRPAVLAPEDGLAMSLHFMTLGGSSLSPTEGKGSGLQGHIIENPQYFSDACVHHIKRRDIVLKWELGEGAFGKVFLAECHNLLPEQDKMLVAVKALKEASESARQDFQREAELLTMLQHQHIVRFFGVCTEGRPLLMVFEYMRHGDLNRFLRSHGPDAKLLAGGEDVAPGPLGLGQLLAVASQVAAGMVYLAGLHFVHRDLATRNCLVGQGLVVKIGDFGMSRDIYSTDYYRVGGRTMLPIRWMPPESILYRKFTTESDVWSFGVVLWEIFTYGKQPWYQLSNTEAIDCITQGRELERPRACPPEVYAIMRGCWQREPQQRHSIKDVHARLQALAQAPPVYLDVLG
UniProt Q9UM73, 19-1620: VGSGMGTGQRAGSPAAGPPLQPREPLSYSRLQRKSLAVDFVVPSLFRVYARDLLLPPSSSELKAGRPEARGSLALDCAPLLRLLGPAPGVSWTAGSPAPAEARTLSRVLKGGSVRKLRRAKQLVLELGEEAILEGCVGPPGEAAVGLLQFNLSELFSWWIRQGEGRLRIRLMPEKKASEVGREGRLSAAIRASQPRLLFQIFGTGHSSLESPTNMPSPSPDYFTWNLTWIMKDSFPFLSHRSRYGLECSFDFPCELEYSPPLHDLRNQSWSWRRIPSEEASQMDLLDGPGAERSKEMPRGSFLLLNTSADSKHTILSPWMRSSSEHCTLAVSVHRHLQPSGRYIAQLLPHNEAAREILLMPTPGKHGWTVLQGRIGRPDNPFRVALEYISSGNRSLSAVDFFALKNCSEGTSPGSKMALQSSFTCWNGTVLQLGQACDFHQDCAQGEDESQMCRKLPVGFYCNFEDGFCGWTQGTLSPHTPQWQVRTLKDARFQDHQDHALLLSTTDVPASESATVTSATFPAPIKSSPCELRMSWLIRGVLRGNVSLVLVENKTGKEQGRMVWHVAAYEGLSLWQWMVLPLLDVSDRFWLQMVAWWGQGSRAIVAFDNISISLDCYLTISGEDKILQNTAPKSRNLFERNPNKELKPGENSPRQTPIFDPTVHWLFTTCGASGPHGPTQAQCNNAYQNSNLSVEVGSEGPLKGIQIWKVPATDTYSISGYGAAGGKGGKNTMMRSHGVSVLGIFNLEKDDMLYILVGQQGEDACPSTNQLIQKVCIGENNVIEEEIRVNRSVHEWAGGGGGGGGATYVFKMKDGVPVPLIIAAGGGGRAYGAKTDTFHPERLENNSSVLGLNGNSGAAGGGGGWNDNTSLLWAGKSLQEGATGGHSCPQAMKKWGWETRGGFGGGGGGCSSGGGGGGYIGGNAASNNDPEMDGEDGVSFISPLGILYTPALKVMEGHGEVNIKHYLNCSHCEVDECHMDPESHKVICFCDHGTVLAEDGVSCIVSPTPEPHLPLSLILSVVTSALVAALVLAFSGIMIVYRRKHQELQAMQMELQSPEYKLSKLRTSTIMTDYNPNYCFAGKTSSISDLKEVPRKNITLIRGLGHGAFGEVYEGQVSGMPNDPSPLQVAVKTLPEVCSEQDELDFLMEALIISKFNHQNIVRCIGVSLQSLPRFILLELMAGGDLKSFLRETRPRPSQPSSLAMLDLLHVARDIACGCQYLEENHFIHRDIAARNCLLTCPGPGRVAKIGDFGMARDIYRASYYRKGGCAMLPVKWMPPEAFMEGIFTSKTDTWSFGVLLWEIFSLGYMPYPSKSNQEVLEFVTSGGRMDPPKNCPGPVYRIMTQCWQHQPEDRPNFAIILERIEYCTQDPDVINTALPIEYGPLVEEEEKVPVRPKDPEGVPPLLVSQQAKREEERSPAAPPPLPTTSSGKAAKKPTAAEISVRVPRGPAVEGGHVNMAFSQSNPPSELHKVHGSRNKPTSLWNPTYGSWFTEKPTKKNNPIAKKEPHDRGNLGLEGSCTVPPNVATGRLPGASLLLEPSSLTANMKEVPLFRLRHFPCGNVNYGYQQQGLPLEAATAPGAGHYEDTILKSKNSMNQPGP

In assay [1] the target is TrkA (Homo sapiens (Human), UniProt P04629). The assay is described as follows: In vitro kinase activity assay (LANCE TR-FRET). Type of assay: biochemical. Conditions: read-out: TrkA (nM) IC50.
Assay [2] addresses ALK (Homo sapiens (Human), UniProt Q9UM73). The assay is described as follows: In vitro kinase activity assay (LANCE TR-FRET). Type of assay: biochemical. Conditions: read-out: ALK IC50.

pIC50: −log10 of the molar value. A value given as a limit tells only on which side of the number the result lay.

Consider `C[C@@H](Cc1c(F)c(F)cc(F)c1F)Nc1cc[nH]c(=O)c1-c1nc2cc3c(cc2[nH]1)C(=O)N(CCN(C)C)C3` [Compound 1, (S)-6-(2-(Dimethylamino)ethyl)-2-(2-oxo-4-((1-(2,3,5,6-tetrafluorophenyl)propan-2-yl)amino)-1,2-dihydropyridin-3-yl)-6,7-dihydroimidazo[4,5-f]isoindol-5(3H)-one], for which the IC50 in assay [1] is 1.14 nM.
In the case of “(S)-6-(6-Fluoropyridin-3-yl)-2-(2-oxo-4-((1-(2,3,5,6-tetrafluorophenyl)propan-2-yl)amino)-1,2-dihydropyridin-3-yl)imidazo[4,5-f]isoindole-5,7(1H,6H)-dione [Compound 15]”, the pIC50 in assay [2] was less than 5.00.
